These results are taken from ChEMBL document CHEMBL1146899, “Redefining the structure-activity relationships of 2,6-methano-3-benzazocines. 4. Opioid receptor binding properties of 8-[N-(4'-phenyl)-phenethyl)carboxamido] analogues of cyclazocine and ethylketocycalzocine” (J Med Chem, 2006).

Chains of the proteins cited; added tags and fusions are not shown. Lines headed by an entry give the natural chain unless they say otherwise; changes in a name come on top.
UniProt P41145: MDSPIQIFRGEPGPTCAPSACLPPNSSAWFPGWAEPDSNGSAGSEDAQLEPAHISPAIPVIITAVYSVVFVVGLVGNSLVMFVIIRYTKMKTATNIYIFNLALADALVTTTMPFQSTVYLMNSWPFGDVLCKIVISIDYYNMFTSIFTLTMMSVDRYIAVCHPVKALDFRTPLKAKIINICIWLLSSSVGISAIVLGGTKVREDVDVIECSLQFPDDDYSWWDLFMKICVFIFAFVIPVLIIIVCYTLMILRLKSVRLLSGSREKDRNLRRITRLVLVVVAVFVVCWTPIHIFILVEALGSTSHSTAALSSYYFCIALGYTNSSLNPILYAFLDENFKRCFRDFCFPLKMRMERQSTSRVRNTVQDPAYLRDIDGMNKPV

This assay concerns the target Kappa-type opioid receptor (Homo sapiens, UniProt P41145). Briefly: biochemical. The format is cell-based, CHO.

Structures are written as SMILES.

In general, Ki refers to a measure of affinity in units of concentration, obtained from inhibition or displacement. A higher Ki goes with weaker binding.

`C[C@@H]1[C@@H]2Cc3ccc(C(=O)NCCc4ccc(-c5ccccc5)cc4)cc3[C@]1(C)CCN2CC1CC1`: affinity was put at a Ki of 8.5 nM. `C[C@H]1C2Cc3ccc(C(N)=O)cc3[C@@]1(C)CCN2CC1CC1` gave a Ki of 0.06 nM.
